The text below walks through data of PubChem BioAssay AID927 (National Center for Advancing Translational Sciences (NCATS), 2007).

The chains behind the UniProt entries cited, without tags or fusion partners.
UniProt O75604, whole entry: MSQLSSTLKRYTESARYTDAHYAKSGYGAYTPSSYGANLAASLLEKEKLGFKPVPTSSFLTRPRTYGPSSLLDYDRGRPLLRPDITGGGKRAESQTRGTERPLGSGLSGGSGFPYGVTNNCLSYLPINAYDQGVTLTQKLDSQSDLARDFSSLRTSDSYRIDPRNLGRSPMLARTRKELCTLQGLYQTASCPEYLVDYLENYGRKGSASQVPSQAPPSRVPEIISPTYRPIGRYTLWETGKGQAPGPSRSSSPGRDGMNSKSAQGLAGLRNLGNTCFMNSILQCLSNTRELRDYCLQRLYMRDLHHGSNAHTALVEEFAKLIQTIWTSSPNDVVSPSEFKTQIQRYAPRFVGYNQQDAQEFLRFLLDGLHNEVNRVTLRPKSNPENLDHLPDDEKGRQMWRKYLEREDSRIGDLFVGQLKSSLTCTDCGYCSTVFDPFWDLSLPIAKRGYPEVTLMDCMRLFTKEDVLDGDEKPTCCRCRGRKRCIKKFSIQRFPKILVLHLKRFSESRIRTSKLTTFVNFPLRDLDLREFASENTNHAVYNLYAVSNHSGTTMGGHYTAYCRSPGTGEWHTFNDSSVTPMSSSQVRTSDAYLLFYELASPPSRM

Only a part is listed here, and it is no random draw. Active and inactive are the calls of the source. Calls come from the whole dose curve; as a rule, active = well fitted inhibition curve with a large enough effect; inconclusive = small, poorly fitted or top-dose-only effect; inactive = no such curve, though single readings can be large or run the other way.

This experiment deals with Ubiquitin carboxyl-terminal hydrolase 2 (Homo sapiens) (UniProt O75604). The experiment can be described thus: qHTS Assay for Inhibitors of Ubiquitin-specific Protease USP2a. Note: nearly all actives have a fitted effect of over 60% in size. The conditions noted are these: USP2a enzymatic assay; at 38.3 µM (top of the series). From the text: NIH Molecular Libraries Screening Centers Network [MLSCN]
NIH Chemical Genomics Center [NCGC]
PI Name: Nicholson, Ben. Progenra Inc, Malvern, PA
Homeostasis of cellular proteins is maintained through a combination of synthesis and degradation. The pathway that accounts for the majority of protein degradation is the ubiquitin-proteasomal pathway. Ubiquitin (Ub) is highly conserved in all cells and the generation of a multi-Ub chain typically targets proteins for degradation by the proteasome. However, ubiquitination is highly reversible and dynamic. Deubiquitination, the reverse process, is catalyzed through the action of enzymes referred to as isopeptidases or deubiquitinating enzymes (DUBs). This group of enzymes is collectively responsible for maintaining adequate pools of free ubiquitin and regulating the ubiquitination status of cellular proteins. The class of DUBs referred to as the ubiquitin-specific proteases (USP) family functions endoproteolytically to cleave Ub chains from a wide range of protein substrates. USP2a deubiquitinates fatty acid synthase (FASN) which has recently been identified as an emerging oncology target. To identify inhibitors of USP2a a cell-free assay was employed.
The reporter enzyme chosen is phospholipase A2 (PLA2), which has an absolute requirement for a free amino terminus. Thus, fusion of a UBL to the N-terminus of PLA2 inactivates PLA2. When the UBL-PLA2 reporter enzyme is cleaved by USP2, the activated reporter can subsequently act on its substrate, which is the commercially available NBD C6-HPC (Invitrogen). Thus, this coupled assay gives a fluorescent read-out, which is generated through the cleavage of the PLA2 reporter enzyme. The assay, developed by Progenra, Inc. uses Ub-PLA2 and USP2a at near equal and low (nM) amounts and has been licensed for sale by LifeSensors, Inc. as the Ub-IsoPro1 kit.
NCGC Assay Protocol Summary:
The assay buffer, prepared fresh at the day of the assay, contains 20mM Tris-HCl pH 8.0, 2mM CaCl2, 2mM beta-Mercaptoethanol, 0.1% DMSO. 3ul of 40nM (20nM final) USP2 core, which is stored on ice, is dispensed into a medium-binding black solid Kalypsys 1,536 well plate using the Kalypsys dispenser. The assay plate is then pinned with 23nL compound with the Kalypsys pintool in columns 5-48. The controls are pinned as follows: column 1&2 two-fold dilutions of 2M NEM in duplicate; column 3 DMSO; column 4 2M NEM (final concentration 38.2mM). The assay plate is incubated at RT for 30min. Subsequently, 3uL of 40nM (20nM final) Ub-PLA2 and 40uM (20uM final) NBD C6-HPC (stored on ice and protected from light) were dispensed into the plate using the Kalypsys dispenser. Plates were read immediately (0 Hour) on an Envision (Perkin Elmer) plate reader using the following wavelengths Ex 460nm /Em 535nm. Then, the assay plates were incubated for 2.5 hours and read again on the Envision using the same settings
Data were normalized to the to AC100 inhibition (NEM). Concentration-response curves were fitted to the normalized data and the concentration-response curves were then classified based on curve quality (r2), response magnitude and degree of measured activity. The time zero reading was used to flag fluorescence artifacts.
Keywords: ubiquitination, deubiquitination, proteases, profluorescent, MLSMR, MLSCN, NIH Roadmap, qHTS, NCGC
In general terms: Quantitative high-throughput screening tests each substance at several concentrations.
For the compound `N#CC1(Nc2ccccc2)CCN(CCc2ccccc2)CC1`, the activity change, negative = inhibition was inactive: -1.22%.
Consider `O=C(OC1CN2CCC1CC2)C1c2ccccc2Oc2ccccc21` (stereo unspecified), for which the activity change, negative = inhibition is inactive: 8.77%.
As to `CCOc1ncccc1C(=O)NCC1(N2CCOCC2)CCCCC1`, the activity change, negative = inhibition is inactive: 0.0342%.
Turning to `CCC(CO)(C(=O)OC1CN2CCC1CC2)c1ccccc1` (stereo unspecified), the activity change, negative = inhibition was inactive: 4.37%.
Turning to `Fc1ccccc1NC1CCN(Cc2ccccc2)CC1`, the activity change, negative = inhibition is inactive: -4.34%.
`N/C(=N\O)c1c(N)no[n+]1[O-]`: the activity change, negative = inhibition was inactive: -1.12%.
